# Reference: PubChem BioAssay AID580 (SRMLSC, 2007)
# The entries are a selection whose mix differs from that of the whole data set. Some of these compounds have results that are not shown, active ones among them. Active and inactive are the calls of the source.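 The calls were made as follows: active = viability at or under a set limit in both replicates, limit being median viability minus 3 SD (cut at about 48% in these data, passing the limit was not always enough); inconclusive = at or under the limit in just one replicate; inactive = at or above the limit in both replicates.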
# Experiment: growth inhibitors of H69AR lung tumor, primary screen, human, duplicate replicates (AID 580);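 also: 100% = mean luminescence of untreated wells and 0% = no signal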
# Details: H69AR lung tumor cells viability, ATP luminescence, 72 h; at 10 µM; hits give low values
row,Structure (SMILES),viability
1,O=C(OC1CN2CCC1CC2)C(CO)(c1ccccc1)c1ccccc1 (stereo unspecified),inactive: 88.5%
